Consider 1 molecule from patent US12331059B2 (priority 2019, dated 2025).

For this assay, the system named is MV4-11 cells. The note with it: 48 h culture, half inhibitory concentration on growth of tumor cells.

Regarding `Cc1ncsc1-c1ccc(CNC(=O)C2CC(O)CN2C(=O)C(NC(=O)CNC(=O)OCCC2OC3OC4(C)CCC5C(C)CCC(C2C)C35OO4)C(C)(C)C)cc1` (stereo not shown), the IC50 (commonly the concentration that gives 50% inhibition) was found to be 870 nM.
